From paper PMC7485978, “A tyrosine phosphoregulatory system controls exopolysaccharide biosynthesis and biofilm formation in Vibrio cholerae” (PLoS Pathogens, 2020)

System: O=[N+]([O-])c1ccc(OP(=O)(O)O)cc1
Experiment: purified protein
Conditions: 37 °C, 40 mM Tris pH 8, 150 mM NaCl, 10 mM DTT, 1% Tween, 1 μM enzyme, 3-hour reaction

## VpsU (Vibrio cholerae O1 biovar El Tor str. N16961)
  Km: 900 ± 100 µM
  kcat: 0.0233 ± 0.0017 s⁻¹
